This note sets out measurements from article PMC2996484 (Journal of neurochemistry, 2010).

Amino acid sequences for entries named in this document (tags omitted). A change or cut given only in a name is not applied to a line headed by its entry.
UniProt P12657: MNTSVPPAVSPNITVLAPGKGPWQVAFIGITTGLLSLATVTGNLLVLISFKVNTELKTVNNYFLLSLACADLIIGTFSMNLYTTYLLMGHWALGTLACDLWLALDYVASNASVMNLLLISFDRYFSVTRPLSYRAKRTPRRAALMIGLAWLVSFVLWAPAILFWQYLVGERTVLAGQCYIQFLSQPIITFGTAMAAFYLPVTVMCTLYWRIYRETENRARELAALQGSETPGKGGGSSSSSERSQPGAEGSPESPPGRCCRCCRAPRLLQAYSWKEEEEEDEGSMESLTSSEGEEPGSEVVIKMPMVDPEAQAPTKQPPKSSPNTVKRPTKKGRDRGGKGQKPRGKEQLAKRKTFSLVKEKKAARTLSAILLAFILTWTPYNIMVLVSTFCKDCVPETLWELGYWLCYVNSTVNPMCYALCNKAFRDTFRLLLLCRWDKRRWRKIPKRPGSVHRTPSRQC

This test has as its target m1 muscarinic acetylcholine receptor (m1AchR) (Mus musculus, UniProt P12657). The conditions noted are these: 100 μM carbachol 30 min, cells over-expressing the m1AchR, Fig. 2.

In the case of `C[N+](C)(C)CCOC(N)=O` [carbachol], the “D1DAR phosphorylation on carbachol stimulation” value is given as “significant increase in D1DAR phosphorylation”.
